pIC50: −log10 of the molar value.
Assays:
Assay type in all cases: biochemical
DPP-II = DPP-II (Homo sapiens (Human), UniProt Q9UHL4); experiment: Measurement of DPP-II inhibitory activity (Gly-Pro-AFC); details: read-out: DPP-II; 100 μM Gly-Pro-AFC, 50 mM acetic acid pH 4.5, room temperature
DPP-IX = DPP-IX (Homo sapiens (Human), UniProt Q86TI2); experiment: Measurement of DPP-IX inhibitory activity (Gly-Pro-AFC); details: read-out: DPP-IX; 100 μM Gly-Pro-AFC, 50 mM HEPES pH 7.5, room temperature
DPP-VIII = DPP-VIII (Homo sapiens (Human), UniProt Q6V1X1); experiment: Measurement of DPP-VIII inhibitory activity (Gly-Pro-AFC); details: read-out: DPP-VIII; 100 μM Gly-Pro-AFC, 50 mM HEPES pH 7.5, room temperature

Protein sequences, listed by entry. Tags and fused reporters are not part of them.
UniProt Q86TI2, whole entry: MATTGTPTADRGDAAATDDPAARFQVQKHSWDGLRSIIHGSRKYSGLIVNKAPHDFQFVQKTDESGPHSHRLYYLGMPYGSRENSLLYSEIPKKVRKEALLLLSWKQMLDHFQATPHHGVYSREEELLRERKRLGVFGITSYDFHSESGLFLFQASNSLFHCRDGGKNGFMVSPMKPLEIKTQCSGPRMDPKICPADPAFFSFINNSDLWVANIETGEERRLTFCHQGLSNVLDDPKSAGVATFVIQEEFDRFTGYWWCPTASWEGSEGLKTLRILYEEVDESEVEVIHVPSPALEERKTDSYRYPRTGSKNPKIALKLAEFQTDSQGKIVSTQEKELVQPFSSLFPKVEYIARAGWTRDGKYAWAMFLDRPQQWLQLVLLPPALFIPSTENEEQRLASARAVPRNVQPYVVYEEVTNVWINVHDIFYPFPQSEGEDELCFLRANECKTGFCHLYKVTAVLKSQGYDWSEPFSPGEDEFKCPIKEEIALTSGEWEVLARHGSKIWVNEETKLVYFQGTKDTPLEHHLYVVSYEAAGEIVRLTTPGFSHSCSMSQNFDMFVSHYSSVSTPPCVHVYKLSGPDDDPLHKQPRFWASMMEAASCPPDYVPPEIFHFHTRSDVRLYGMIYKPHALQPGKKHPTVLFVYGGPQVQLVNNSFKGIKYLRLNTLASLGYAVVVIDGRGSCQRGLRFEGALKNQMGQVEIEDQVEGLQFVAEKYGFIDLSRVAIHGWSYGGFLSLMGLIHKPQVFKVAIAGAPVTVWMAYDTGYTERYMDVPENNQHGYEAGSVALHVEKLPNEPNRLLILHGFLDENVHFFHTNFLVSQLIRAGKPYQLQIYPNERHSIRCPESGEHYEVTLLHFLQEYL
UniProt Q6V1X1, whole entry: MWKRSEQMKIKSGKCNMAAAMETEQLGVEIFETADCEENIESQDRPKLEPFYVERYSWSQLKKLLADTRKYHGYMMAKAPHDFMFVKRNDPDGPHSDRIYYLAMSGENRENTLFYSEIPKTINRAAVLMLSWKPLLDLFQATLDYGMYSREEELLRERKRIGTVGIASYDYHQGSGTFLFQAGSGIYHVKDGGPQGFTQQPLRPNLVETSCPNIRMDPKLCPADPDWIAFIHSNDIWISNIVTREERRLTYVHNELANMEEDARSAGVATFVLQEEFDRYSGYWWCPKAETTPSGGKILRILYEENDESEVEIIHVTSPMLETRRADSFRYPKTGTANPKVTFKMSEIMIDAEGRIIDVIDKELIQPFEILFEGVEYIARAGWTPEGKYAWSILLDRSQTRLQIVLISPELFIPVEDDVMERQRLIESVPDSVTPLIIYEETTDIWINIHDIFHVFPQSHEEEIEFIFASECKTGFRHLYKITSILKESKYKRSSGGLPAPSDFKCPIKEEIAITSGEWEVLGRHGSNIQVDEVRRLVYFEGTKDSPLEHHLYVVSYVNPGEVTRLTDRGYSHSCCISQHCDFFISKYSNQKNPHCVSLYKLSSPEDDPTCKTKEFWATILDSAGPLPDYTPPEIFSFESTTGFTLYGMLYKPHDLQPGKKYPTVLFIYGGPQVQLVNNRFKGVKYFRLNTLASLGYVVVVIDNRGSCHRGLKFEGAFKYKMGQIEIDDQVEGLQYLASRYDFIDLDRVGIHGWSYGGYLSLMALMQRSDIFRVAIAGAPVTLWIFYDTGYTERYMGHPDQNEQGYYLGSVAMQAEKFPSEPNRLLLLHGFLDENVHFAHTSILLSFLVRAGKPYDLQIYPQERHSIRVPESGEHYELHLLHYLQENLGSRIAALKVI

pIC50 (DPP-II): < 3.40
pIC50 (DPP-IX): 3.91
pIC50 (DPP-VIII): 4.82
SMILES: N[C@@H](CC(=O)N1CCc2c(nc(C(F)(F)F)nc2C(F)(F)F)C1)CN1CC(F)(F)CCC1=O

Reference: patent US8470836B2, “Dipeptidyl peptidase-IV inhibiting compounds, methods of preparing the same, and pharmaceutical compositions containing the same as active agent” (LG Life Sciences, Ltd., priority 2007, dated 2013)
